# Assay results as given in PubChem BioAssay AID376 (PDSP, 2006).
# By UniProt entry, the sequences of proteins in these tests, tags left out.
# UniProt Q12809, whole entry: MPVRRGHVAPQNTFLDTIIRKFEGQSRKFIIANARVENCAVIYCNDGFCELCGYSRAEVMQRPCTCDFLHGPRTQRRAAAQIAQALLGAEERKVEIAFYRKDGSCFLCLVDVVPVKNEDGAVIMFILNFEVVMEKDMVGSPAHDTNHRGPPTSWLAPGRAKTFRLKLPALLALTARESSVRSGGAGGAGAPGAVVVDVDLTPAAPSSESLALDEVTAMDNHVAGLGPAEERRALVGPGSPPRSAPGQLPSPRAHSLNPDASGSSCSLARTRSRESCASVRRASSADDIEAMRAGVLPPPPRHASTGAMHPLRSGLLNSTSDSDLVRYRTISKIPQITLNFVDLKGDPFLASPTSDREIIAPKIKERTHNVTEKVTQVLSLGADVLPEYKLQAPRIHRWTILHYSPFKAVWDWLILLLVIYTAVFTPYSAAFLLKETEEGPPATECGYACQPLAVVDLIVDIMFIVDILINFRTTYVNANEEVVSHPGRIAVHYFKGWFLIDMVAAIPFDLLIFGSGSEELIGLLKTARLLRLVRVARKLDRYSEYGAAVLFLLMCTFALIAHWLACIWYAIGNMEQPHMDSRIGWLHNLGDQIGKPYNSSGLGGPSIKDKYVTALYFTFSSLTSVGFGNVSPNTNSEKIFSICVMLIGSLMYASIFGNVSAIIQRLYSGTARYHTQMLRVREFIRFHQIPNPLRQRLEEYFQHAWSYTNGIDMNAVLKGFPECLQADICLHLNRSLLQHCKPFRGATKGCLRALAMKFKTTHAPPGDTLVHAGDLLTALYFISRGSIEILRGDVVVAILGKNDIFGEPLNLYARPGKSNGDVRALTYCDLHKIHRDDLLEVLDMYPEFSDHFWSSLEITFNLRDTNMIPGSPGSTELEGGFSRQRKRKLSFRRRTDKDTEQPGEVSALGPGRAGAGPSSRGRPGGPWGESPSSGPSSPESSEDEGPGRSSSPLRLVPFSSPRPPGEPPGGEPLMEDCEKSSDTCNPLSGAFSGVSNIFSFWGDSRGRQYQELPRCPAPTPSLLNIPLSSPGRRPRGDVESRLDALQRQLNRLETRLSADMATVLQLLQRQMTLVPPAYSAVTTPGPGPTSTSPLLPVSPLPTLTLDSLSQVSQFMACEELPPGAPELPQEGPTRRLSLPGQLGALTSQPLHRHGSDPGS
# The list shows a part of the results, in another mix than the full data. Activity calls are given as the source filed them. Cut-off read from the data, not from the text of the source: active = hERG blockade below about -20% or above about 20%; inactive = in between.
# Biological target: Voltage-gated inwardly rectifying potassium channel KCNH2 (Homo sapiens) (UniProt Q12809)
# Assay: KCNH2 potassium channel function modulators, cell-based (AID 376);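 note: 0% = buffer alone and 100% = reference blocker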
# Details: hERG-expressing cells, channel activity single-concentration screen; concentration not given here
row,SMILES,hERG blockade
1,O=C(O)C1(Nc2ccccc2)CCN(Cc2ccccc2)CC1,active: -21%
2,NC1CCCCC1.NP(=O)(O)N(CCCl)CCCl,inactive: -18.3%
